In PubChem BioAssay AID1490 (National Center for Advancing Translational Sciences (NCATS), 2009):
The list shows a part of the results, in another mix than the full data. Inconclusive results are not listed. The source made the active and inactive calls. The call rests on the fitted dose curve; in most records, active means well fitted inhibition curve with a large enough effect; inconclusive means small, poorly fitted or top-dose-only effect, or another doubt; inactive means no such curve, though single readings can be large or run the other way.

These compounds were tested against 4'-phosphopantetheinyl transferase ffp (Bacillus subtilis) (UniProt Q9F4F7) (assay: qHTS Assay for Inhibitors of Bacillus subtilis Sfp phosphopantetheinyl transferase (PPTase)). Settings: Biochemical Sfp PPTase activity.
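Further: the enzyme is Sfp with the accession as filed and its product quenches rhodamine fluorescence; 0% = enzyme reaction without inhibitor and -100% = no enzyme wells.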

| Structure (SMILES) | largest response in the series, negative = inhibition |
| --- | --- |
| COc1ccc2nc(NP(=O)(c3ccccc3)c3ccccc3)sc2c1 | inactive: 14.5% |
